Data taken from publication PMC12271536.

Experiment: Inhibitor solubility under ITC conditions
Conditions: same conditions as ITC (buffer B); precluded ITC analysis

With `N#C[C@H](C[C@@H]1CCCNC1=O)NC(=O)[C@H](CC1CC1)NC(=O)c1cc2cccc(Cl)c2[nH]1` the solubility was “poor”.
